{"source": "patent US12661336B2", "about": "“Polymorphs of phenyl pyrrole aminoguandium salts” (SYNACT PHARMA APS, priority 2021, dated 2026)", "key": {"[1]": {"details": "HPLC"}, "[2]": {"assay": "Thermodynamic solubility of AP1189 salts in 0.5 M and 0.2 M buffer solutions (Example 6, Tables 38a, 38b)"}}, "note": "Read-outs that look alike come from different tables or passages of the source.", "data": [{"substance": "N-{3-[1-(2-nitrophenyl)-1H-pyrrol-2-yl]-allylidene}-aminoguanidinium succinate [AP1189 succinate]", "values": [{"measurement": "ML conc.", "setting": "[1]; Example 8, Ethanol:water 50:50 v/v %, mother liquor after cooling-only, 5° C.", "value": 6.15, "unit": "mg/mL"}, {"measurement": "ML conc.", "setting": "[1]; Example 8, Ethanol:water 50:50 v/v %, mother liquor after isolation (after anti-solvent addition), 5° C.", "value": 6.14, "unit": "mg/mL"}, {"measurement": "ML conc.", "setting": "[1]; Example 9, starting solvent 1-propanol:water (50:50% v/v), Final sample", "value": 3.37, "unit": "mg/mL"}, {"measurement": "ML conc.", "setting": "[1]; Example 9, starting solvent 1-propanol:water (50:50% v/v), sample After ASA 1 (40:60 v/v), 5° C.", "value": 6.21, "unit": "mg/mL"}, {"measurement": "ML conc.", "setting": "[1]; Example 10, starting solvent 1-propanol:water (50:50% v/v), anti-solvent water to 30:70% v/v, Final sample", "value": 3.19, "unit": "mg/mL"}, {"measurement": "XRPD analysis of residual solids from solubility experiment", "setting": "[2]; 0.5 M buffer, pH 1.2", "value": "Succinic acid was obtained"}, {"measurement": "solubility, comparison of salts (in words)", "setting": "[2]; 0.5 M buffers, succinate Pattern 1 compared with fumarate Pattern 1", "value": "Higher solubility"}, {"measurement": "solubility at pH 1.2 (in words)", "setting": "[2]; pH 1.2", "value": "high solubility"}]}]}
